# According to patent US4778799A, “Synergistic combination of flupirtin and non-steroidal antiphlogistic” (priority 1985, dated 1988):
# Test: in vivo
# Details: mouse, po
smiles,measurement,value
CC1=C(CC(=O)O)c2cc(F)ccc2/C1=C\c1ccc([S+](C)[O-])cc1 (stereo not shown) [Sulindac],LD50,507 mg/kg
